Assay results published in patent US8044198B2, “Sirtuin modulating compounds” (Sirtris Pharmaceuticals, Inc., priority 2005, dated 2011).
Where two headings read alike, the source gives them in different places.

By UniProt entry, the sequences of proteins in these tests, tags left out.
UniProt Q96EB6, whole entry: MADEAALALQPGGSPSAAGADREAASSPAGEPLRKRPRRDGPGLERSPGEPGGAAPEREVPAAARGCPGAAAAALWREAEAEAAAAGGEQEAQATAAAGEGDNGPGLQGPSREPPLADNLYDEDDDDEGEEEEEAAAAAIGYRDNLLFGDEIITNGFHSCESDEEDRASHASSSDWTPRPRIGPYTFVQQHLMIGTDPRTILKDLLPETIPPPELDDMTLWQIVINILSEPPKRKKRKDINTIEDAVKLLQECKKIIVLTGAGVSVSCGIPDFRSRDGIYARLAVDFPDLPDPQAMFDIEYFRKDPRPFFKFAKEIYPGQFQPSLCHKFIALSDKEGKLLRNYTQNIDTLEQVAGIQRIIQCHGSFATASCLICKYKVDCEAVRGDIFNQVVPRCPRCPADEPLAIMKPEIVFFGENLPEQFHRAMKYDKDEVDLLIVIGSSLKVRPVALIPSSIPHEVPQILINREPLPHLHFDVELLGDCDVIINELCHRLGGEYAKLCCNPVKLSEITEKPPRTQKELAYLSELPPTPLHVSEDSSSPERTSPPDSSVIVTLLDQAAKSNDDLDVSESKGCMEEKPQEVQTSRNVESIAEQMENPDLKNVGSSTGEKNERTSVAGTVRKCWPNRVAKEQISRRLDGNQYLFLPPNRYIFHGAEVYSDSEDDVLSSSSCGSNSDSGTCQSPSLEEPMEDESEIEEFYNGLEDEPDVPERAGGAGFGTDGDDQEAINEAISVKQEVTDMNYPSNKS

Biological target: SIRT1 (Homo sapiens, UniProt Q96EB6)
Assay: SIRT1 mass spectrometry (MS) based deacetylation assay; for FOLD ACT. MS: test concentration or dose not given here
Format: biochemical
Conditions: for EC50: read-out: ED50 MS ASSAY, SIRT1 activation, mass spectrometry assay

SMILES | FOLD ACT. MS (fold activation of SIRT1, mass spectrometry assay) | EC50 [µM] | FOLD ACT. MS (SIRT1 fold activation as determined by MS, tested form: TFA salt) | EC50 (tested form: TFA salt) [µM]
CN(C)c1cccc(C(=O)Nc2ccc(-c3nc4ccccc4[nH]3)cc2)c1 | B (B (Fold Activation <250%)) | < 5 |  | 
COc1cc(OC)cc(C(=O)Nc2ccccc2-c2nc3cc(CN4CCOCC4)cnc3s2)c1 |  |  | A (A (Fold activation >250%)) | < 5
